EP4772530A1, “PEPTIDE TARGETING SOMATOSTATIN RECEPTOR, DRUG CONJUGATE AND USE THEREOF” (Mainline Biosciences (Shanghai) Co., Ltd., priority 2023, dated 2025)
Like-named read-outs stand apart in the source and are kept apart here.

Tested on: NCI-H69 cells
Conditions: for Tumor Volume (Mean ± SEM): Etoposide 10 mpk, intravenous, twice a week

COc1cc([C@@H]2c3cc4c(cc3[C@@H](O[C@@H]3O[C@@H]5CO[C@@H](C)O[C@H]5[C@H](O)[C@H]3O)[C@H]3COC(=O)[C@H]23)OCO4)cc(OC)c1O [Etoposide, etoposide]
tumor inhibition compared to the vehicle control group (By Day 32, etoposide 10 mg/kg, p< 0.001): significant tumor inhibition | Tumor Volume (Mean ± SEM) (Day 18): 148±12 mm3 | Tumor Volume (Mean ± SEM) (Day 21): 197±12 mm3 | Tumor Volume (Mean ± SEM) (Day 25): 283±31 mm3 | Tumor Volume (Mean ± SEM) (Day 28): 346±55 mm3 | Tumor Volume (Mean ± SEM) (Day 32): 423±101 mm3 | Tumor Volume (Mean ± SEM) (Day 35): 541±176 mm3 | Tumor Volume (Mean ± SEM) (Day 39): 740±243 mm3 | Tumor Volume (Mean ± SEM) (Day 42): 808±276 mm3 | Tumor Volume (Mean ± SEM) (Day 46): 1057±365 mm3
